This is an account of results in patent publication US8663703B2, “Drug microparticles, processes of preparing them and a drug delivery vehicle comprising them” (Teva Pharmaceutical Industries, Ltd., priority 2002, dated 2014).

The nature of this series: Solubility of selected drugs in menthol melt. The class given is physicochemical. Particulars: 70 °C.

`Cc1nc2n(c(=O)c1CCN1CCC(c3noc4cc(F)ccc34)CC1)CCCC2` [Risperidone] yielded a Solubility in menthol of 8.3 % w/w.
